In patent US20210252008A1, “BIARYL COMPOSITIONS AND METHODS FOR MODULATING A KINASE CASCADE” (Athenex, Inc., priority 2004, published 2021):

Columns and labels:
[1] = tested on: osteoclast precursors derived from spleen cells; assay: Effect on osteoclast formation; settings: 5 days, RANKL and M-CSF
Paxillin Y-31 = assay: Intracellular phosphorylation levels: Paxillin Y-31; settings: c-Src/NIH-3T3 cells; FIG. 4
osteoclasts = assay: Effect on osteoclast survival; settings: 48 hours, RANKL and M-CSF
FAK Tyr 925 = assay: Intracellular phosphorylation levels: FAK Tyr 925; settings: c-Src/NIH-3T3 and HT-29 cells; FIG. 2
She Y239/240 = assay: Intracellular phosphorylation levels: She Y239/240; settings: c-Src/NIH-3T3 and HT-29 cells; FIG. 3
[2] = tested on: Chinchillas, noise-induced hearing loss; assay: Protection against noise-induced hearing loss; settings: chinchilla; round window application; 4 kHz band noise 105 dB SPL four hours; day 1, 7, 21; in most cases
[3] = tested on: osteoclasts on bone slices; assay: Effect on bone resorption in vitro (bone slices)

COc1cc2c(Nc3c(Cl)ccc4c3OCO4)ncnc2cc1OCCCN1CCCCC1
number of TRAP-positive osteoclasts vs untreated control (formation) ([1]; FIG. 17): reduced the number of TRAP-positive osteoclasts
formation of osteoclasts vs untreated control ([1]; stained, FIG. 16): inhibited the formation of osteoclasts
phosphorylation of Paxillin Y-31 (Src trans-phosphorylation) (Paxillin Y-31): inhibited
survival of osteoclasts vs untreated control (osteoclasts; FIG. 18): inhibited the survival of osteoclasts
number of TRAP-positive osteoclasts vs untreated control (survival) (osteoclasts; FIG. 19): reduced the number of TRAP-positive osteoclasts
phosphorylation of FAK Tyr 925 (Src trans-phosphorylation) (FAK Tyr 925): inhibited
phosphorylation of She Y239/240 (Src trans-phosphorylation) (She Y239/240): inhibited
average dB threshold shifts of treated ears vs control [2]: lower
number of osteoclasts on the bone slices vs untreated control ([3]; FIG. 20A): reduced the number of osteoclasts on the bone slices
number of resorption pits on the bone slices vs untreated control ([3]; FIG. 20B): reduced the number of resorption pits
number of TRAP-positive osteoclasts on the bone slices vs untreated control ([3]; TRAP stain, FIG. 21A): reduced the number of TRAP-positive osteoclasts
number of resorption pits on the bone slices vs untreated control ([3]; Toluidine Blue stain, FIG. 21B): reduced the number of resorption pits
